The values below come from paper PMC6834639.

The target in the assay is tetrameric transthyretin (TTR) (UniProt P02766). The assay is described as follows: SPR; OpenSPR (Nicoya), TTR immobilised on a COOH chip by amine coupling; Aβ peptides injected (Aβ C-terminals 2.4-48 µM; Aβ (1–40/42) 0.2-20 µM); PBS pH 6.8 with 0.005% Tween 20; 150 s association, 400 s dissociation; 1:1 interaction model.

One may read the Kd as the constant that tells how readily two partners part at equilibrium. In the case of “Aβ (1–42) (from UniProt P05067 672-713) (peptide; other documents disagree on this pair)”, the equilibrium dissociation constant (Kd) was 73.6 µM.
